Molecular target: Fluorescein-labeled Tiam1 peptide (mouse)
Experiment: fluorescence polarisation

Substance: CaMKIIα kinase domain (residues 6–274, D135N) (from UniProt Q9UQM7-1 6-274) (domain or fragment)
- Kd: 8.1 µM

Reference: PMC6669903
